The list shows a part of the results, in another mix than the full data. Activity calls are given as the source filed them.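 Rule for the calls: active = pattern-corrected inhibition of lipid staining of at least 50% with the nuclear-stain viability signal not falling by more than 50%; inactive = the rest, inconclusive results apart.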
test: TAG lipid buildup reduction in H9c2 cells – cell-based, uHTS, fluorescence, primary screen (AID 651582); details: Nile Red lipid (TAG) fluorescence, at 12.5 µM, hits give high values, cells loaded with 200 µM oleic acid;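 note: 0% = DMSO wells and 100% = triacsin C control wells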

Row | SMILES | inhibition
1 | O=[N+]([O-])c1cc([N+](=O)[O-])c(Nc2cccnc2)c([N+](=O)[O-])c1 | inactive: 7.89%
2 | O=[As](O)(c1ccc(O)cc1)c1ccccc1O | inactive: 2.39%
3 | COc1cc(C(=O)NCC2(N3CCOCC3)CCCCC2)ccc1OCC(C)C | inactive: 3.65%
4 | O=[N+]([O-])c1ccc(-c2cc([N+](=O)[O-])c(O)c([N+](=O)[O-])c2)cc1 | inactive: 1.09%
5 | Cc1cccc(C)c1OP(C)(N)=O (centres undefined) | inactive: 9.31%
6 | Cc1ccc2nc3c(c(C)c2c1)CC(C(Cl)Cl)S3 (centres undefined) | inactive: -5.17%
7 | O=[N+]([O-])c1ccc2c(c1)C=Nc1ccccc1O2 | inactive: -8.75%
8 | ClCCSc1nnc(-c2cccnc2)o1 | inactive: 22.1%
9 | CC(C)c1ccc(OP(=O)(Nc2ccccn2)Oc2ccccc2F)cc1 (centres undefined) | inactive: -37.9%
10 | Cc1ccc(NP(C)(=O)Oc2ccccc2)c(C)c1 (centres undefined) | inactive: -93.7%
11 | COC(=O)C1(C)COP(=O)(N2CCCCCC2)OC1 (centres undefined) | inactive: -3.22%
12 | O=C(OC1CN2CCC1CC2)c1cccc2[nH]cnc12 (centres undefined) | inactive: -0.447%
13 | CCN(CC)C(=S)SC(NC=O)C(Cl)(Cl)Cl (centres undefined) | inactive: 94.4%
14 | COc1ccccc1OP(C)(=O)Nc1cc(Cl)ccc1C (centres undefined) | inactive: -51.4%
15 | O=[N+]([O-])c1cc([N+](=O)[O-])c(-c2ccn[nH]2)s1 | inactive: 1.1%
16 | COc1ccc(OP(C)(=O)Nc2cccc(F)c2)cc1 (centres undefined) | inactive: -21.6%
17 | Cc1cc(C)cc(OP(C)(N)=O)c1 (centres undefined) | inactive: 0.187%
18 | Cc1c2c(nc3ccccc13)SC(C(Cl)Cl)C2 (centres undefined) | inactive: -9.97%
19 | O=C(OC1CN2CCC1CC2)C12CC3CC(CC(C3)C1)C2 (centres undefined) | inactive: 11.7%
20 | CCN(CC)CCCOC(=O)C(O)(c1ccccc1)c1ccccc1 | inactive: 4.35%
21 | O=P1(N(CCCl)CCCl)OCCCN1CCCl (centres undefined) | inactive: -12.6%
22 | O=P1(N(CCCl)CCCl)Nc2ccccc2N1 | inactive: 9.4%
23 | COc1ccc2nc(NP(=O)(c3ccccc3)c3ccccc3)sc2c1 | inactive: -9.91%
24 | COc1cc(I)ccc1[As](=O)(O)O | inactive: 8.88%

Row | SMILES | inhibition
25 | O=[N+]([O-])c1cc(Oc2ccc([N+](=O)[O-])cc2C(F)(F)F)cc([N+](=O)[O-])c1 | inactive: 0.838%
26 | COc1ccc(N/C(=N/P(=O)(N2CCOCC2)N2CCOCC2)N2CCOCC2)cc1 | inactive: 5.9%
27 | Cc1ccc(Nc2c([N+](=O)[O-])cc([N+](=O)[O-])cc2[N+](=O)[O-])cc1 | inactive: 6.24%
28 | CP(=O)(Nc1ccc(SC(F)(F)F)cc1)Oc1ccc(Cl)cc1 (centres undefined) | inactive: -43.1%
29 | CP(=O)(Oc1ccccc1)OC(c1ccccc1)C(F)(F)F (centres undefined) | inactive: -19%
30 | CCc1ccc(OP(C)(=O)N2CCN(c3ccc([N+](=O)[O-])cc3)CC2)cc1 (centres undefined) | inactive: -30.2%
31 | O=C(COc1ccccc1)OC1CN2CCC1CC2 (centres undefined) | inactive: -20.6%
32 | CCOP(C)(=S)SCC(=O)NC(C)C(=O)O (centres undefined) | inactive: 1.51%
33 | CSc1ccc(Nc2c([N+](=O)[O-])cc([N+](=O)[O-])cc2[N+](=O)[O-])cc1 | inactive: -6.33%
34 | CCOC(=O)c1ccc(NC(=O)C(C)(CCl)SC)cc1 (centres undefined) | inactive: 5.34%
35 | O=[N+]([O-])c1cc([N+](=O)[O-])c(O)c([N+](=O)[O-])c1.c1ccc(Oc2ccncc2)cc1 | inactive: 6.32%
36 | CCOC(=O)Nc1ccc([As](=O)(O)O)c(O)c1 | inactive: 3.05%
37 | O=C(O)C(=O)c1ccc(N(CCCl)CCCl)cc1.c1ccc(Nc2ccccc2)cc1 | inactive: 1.51%
38 | CC1CCNP(=O)(N(CCCl)CCCl)O1 (centres undefined) | inactive: -32.5%
39 | COP(=O)(OC)N1CC1c1ccccc1 (centres undefined) | inactive: -4.19%
40 | CP(=S)(Nn1cnnc1)Oc1ccccc1 (centres undefined) | inactive: 7.31%
41 | O=P(Nc1ccccn1)(c1cccc2ccccc12)c1cccc2ccccc12 | inactive: -3.11%
42 | Cc1cc(SC(NC=O)C(Cl)(Cl)Cl)ncn1 (centres undefined) | inactive: 0.977%
43 | COc1ccccc1OP(C)(=O)Nc1ccccc1 (centres undefined) | inactive: -11%
44 | CC1CCC(C(C)C)C(OP(=O)(Nc2ccccn2)c2ccccc2)C1 (centres undefined) | inactive: -11.8%
45 | CN(C)C1(CNC(=O)c2ccc(S(C)(=O)=O)cc2)CCCCC1 | inactive: 3.73%
46 | CC1=C2N=C(C=C3N=C(C(C)=C4[N-][C@@](C)([C@@H]5N=C1[C@](C)(CCC(=O)NC[C@@H](C)OP(=O)([O-])O[C@H]1[C@@H](O)[C@@H](n6cnc7cc(C)c(C)cc76)O[C@@H]1CO)[C@H]5CC(N)=O)[C@@](C)(CC(N)=O)[C@@H]4CCC(N)=O)[C@@](C)(CC(N)=O)[C@@H]3CCC(N)=O)C(C)(C)[C@@H]2CCC(N)=O.[C-]#N.[Co+3] | inactive: -0.839%
47 | CCOC(=O)C(CC)C1=NC(C)(C)Cc2ccccc21.O=[N+]([O-])c1cc([N+](=O)[O-])c(O)c([N+](=O)[O-])c1 (centres undefined) | inactive: 0.396%
48 | O=C(/C=C/c1ccccc1)OC1CN2CCC1CC2 (centres undefined) | inactive: 8.73%

Row | SMILES | inhibition
49 | CCCC1OP(=O)(Nc2ccccc2)OCC1CC (centres undefined) | inactive: -7.21%
50 | O=P1(Nc2ncccn2)COc2ccccc2OC1 | inactive: 6.19%
51 | COc1ccccc1OP(C)(=O)Nc1c(C)cccc1C (centres undefined) | inactive: -45%
52 | CN1CCCCC1COC(=O)C1(O)c2ccccc2CCc2ccccc21 (centres undefined) | inactive: 17.2%
53 | Nc1cccc([As](=O)(O)c2ccccc2)c1 | inactive: -3.55%
54 | CCCOc1ccc(NP(C)(=O)Oc2ccc(Cl)cc2)cc1 (centres undefined) | inactive: -45.3%
55 | O=P1(Nc2ccc(Br)cn2)COc2ccccc2OC1 | inactive: -6.4%
56 | NS(=O)(=O)c1cccc(NC(=O)COC(=O)C(O)(c2ccccc2)c2ccccc2)c1 | inactive: 7.55%
57 | Cc1ccc(OCC(=O)OC2CN3CCC2CC3)cc1 (centres undefined) | inactive: 0.78%
58 | O=C(O)C(O)c1ccc(N(CCCl)CCCl)cc1.c1ccncc1 (centres undefined) | inactive: 9.31%
59 | O=P1(Nc2ccccn2)COc2ccccc2OC1 | inactive: -10.2%
60 | O=[N+]([O-])c1cc([N+](=O)[O-])c(-n2nnc3ccccc32)c([N+](=O)[O-])c1 | inactive: -1.57%
61 | CN(CCCl)Cc1cc(Cl)c(NC2=NCCN2)c(Cl)c1 | inactive: 6.86%
62 | O=P1(N(CCCl)CCCl)NCCC(C(F)(F)F)O1 (centres undefined) | inactive: 4.16%
63 | Clc1n[nH]nc1-c1nn[nH][15n]1 | inactive: 1.33%
64 | CC(C)(C)C(=O)NC(Sc1ncccn1)C(Cl)(Cl)Cl (centres undefined) | inactive: 7.08%
65 | O=[N+]([O-])c1cc([N+](=O)[O-])c(-c2cnn(-c3ccccc3)c2)c([N+](=O)[O-])c1 | inactive: 30.9%
66 | COc1ccccc1CNC(=O)COC(=O)C(O)(c1ccccc1)c1ccccc1 | inactive: 1.85%
67 | CC(C)/C=N\N=C(\N)N[N+](=O)[O-] | inactive: -4.16%
68 | CN(C(=O)Cc1ccc(Cl)c(Cl)c1)[C@@H]1CCCC[C@H]1N1CCCC1 | inactive: -3.08%
69 | Cc1nc2ccc3ccccc3c2s1.O=[N+]([O-])c1cc([N+](=O)[O-])c(O)c([N+](=O)[O-])c1 | inactive: 9.31%
70 | CC1(CBr)Cn2c(nc3ccccc3c2=O)S1 (centres undefined) | inactive: 0.2%
71 | O=C(OC1CN2CCC1CC2)c1ccc(Cl)cc1 (centres undefined) | inactive: 37.8%
72 | COc1cc(C(=O)NCC2(N3CCOCC3)CCCCC2)cc(Cl)c1OC(C)C | inactive: -1.65%

Row | SMILES | inhibition
73 | O=[As](O)(O)c1cccnc1 | inactive: -1.23%
74 | COc1ccccc1OP(C)(=O)Nc1cccc(Br)c1 (centres undefined) | inactive: -13.7%
75 | O=[As](O)(c1cccc(O)c1)c1cccc(O)c1 | inactive: 8.41%
76 | Cc1cccc(OCC(=O)OC2CN3CCC2CC3)c1 (centres undefined) | inactive: 8.26%
77 | CP(=O)(Nc1cccc(Br)c1)Oc1ccccc1 (centres undefined) | inactive: -22.6%
78 | Cc1ccc(NCCc2c([N+](=O)[O-])cc([N+](=O)[O-])cc2[N+](=O)[O-])cc1 | inactive: 11.9%
79 | Cc1ccc(C)c(NP(C)(=O)Oc2ccccc2)c1 (centres undefined) | inactive: -61%
80 | O=C(O)c1cccc(Nc2c([N+](=O)[O-])cc([N+](=O)[O-])cc2[N+](=O)[O-])c1 | inactive: -0.764%
81 | O=P(Nc1nccs1)(Oc1ccccc1)Oc1ccccc1 | inactive: -22.5%
82 | CS(=O)(=O)c1cc([N+](=O)[O-])c2no[n+]([O-])c2c1 | inactive: 6.63%
83 | Nc1ccccc1[As](=O)(O)c1ccccc1 | inactive: 2.07%
84 | NC(=O)Nc1ccc([As](=O)(O)O)cc1 | inactive: -5.51%
85 | N#CCCN(C(=O)COC(=O)C(O)(c1ccccc1)c1ccccc1)c1ccc(F)cc1 | inactive: 10.9%
86 | CN(C(=O)Cc1ccccc1)[C@@H]1CC[C@]2(CCCO2)C[C@H]1N1CCCC1 | inactive: -11.2%
87 | CN(C(=O)Cc1ccc(Cl)c(Cl)c1)[C@H]1CC[C@@]2(CCCO2)C[C@@H]1N1CCCC1 | inactive: 5.36%
88 | CC1=NCCc2c1[nH]c1ccccc21.O=[N+]([O-])c1cc([N+](=O)[O-])c(O)c([N+](=O)[O-])c1 | inactive: 5.61%
89 | Cc1ccc(NP(=O)(Oc2cccc(C)c2)Oc2cccc(C)c2)nc1 | inactive: -18.9%
90 | CCNC(=S)/N=C(\N)N[N+](=O)[O-] | inactive: -2.01%
91 | COc1ccc(OP(C)(=O)Nc2ccc(SC(F)(F)F)cc2)cc1 (centres undefined) | inactive: 0.641%
92 | O=P1(N(CCCl)CCCl)OCCC2CCCCN21 (centres undefined) | inactive: 4.37%
93 | CCN(CC)CCCOC(=O)C(O)(c1ccccc1)C1CCCCC1 (centres undefined) | inactive: -4.55%
94 | CCC(=O)N1C2C3N(C(=O)CC)C1C1N(C(=O)CC)C(C(N1C(=O)CC)N3C(=O)CC)N2C(=O)CC | inactive: -13.4%
